Test results taken from PubChem BioAssay AID758 (NMMLSC, 2007).
Only a part is listed here, and it is no random draw. Activity calls are given as the source filed them.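 The calls were made as follows: active = fluorescent GTP binding to Rab7 beads changed by at least 20 points from the 100% baseline, either direction, mostly lower; inconclusive = compound itself probably fluorescent, or too few beads counted; inactive = the rest.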

Test system: Rab7 GTPase wild type (dog), Bodipy-FL-GTP binding
Assay: wildtype dog Rab7 nucleotide binding alteration – biochemical, multiplex bead flow cytometry, primary screen (AID 758);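 also: median green fluorescence of bound Bodipy-FL-GTP per Rab7 bead population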
Settings: GST-Rab7 beads, fluorescent GTP binding, at 10 µM, actives lie on both sides, untreated = 100%, excess cold GTP = 0%

SMILES | GTP binding activity (percent of control)
CP(=O)(Oc1ccccc1)OC(c1ccccc1)C(F)(F)F (stereo not drawn) | inactive: 100%
Cc1cccc(C)c1OP(C)(=O)Nc1ccc(SC(F)(F)F)cc1 (stereo not drawn) | inactive: 95%
Cc1cc(C)cc(OP(C)(=O)Nc2ccc(SC(F)(F)F)cc2)c1 (stereo not drawn) | inactive: 99%
CP(=O)(NC(=O)Nc1ccccc1)Oc1ccccc1 (stereo not drawn) | inactive: 97%
CCOP(C)(=S)SCC(=O)NC(C)C(=O)O (stereo not drawn) | inactive: 100%
CCOC(=O)c1ccc(NP(C)(=O)Oc2ccc(OC)cc2)cc1 (stereo not drawn) | inactive: 103%
CP(=O)(Nc1ccccn1)Oc1ccc(Cl)cc1 (stereo not drawn) | inactive: 94%
CP(=S)(Nn1cnnc1)Oc1ccccc1 (stereo not drawn) | inactive: 101%
COc1ccccc1OP(C)(=O)Nc1ccccc1 (stereo not drawn) | inactive: 96%
CP(=O)(Nc1ccccc1Br)Oc1ccccc1 (stereo not drawn) | inactive: 102%
Cc1cccc(C)c1OP(C)(N)=O (stereo not drawn) | inactive: 102%
CC(C)(C)c1ccc(OP(C)(=O)Nc2ccc(SC(F)(F)F)cc2)cc1 (stereo not drawn) | inactive: 102%
O=[N+]([O-])c1ccc2c(c1)C=Nc1ccccc1O2 | inactive: 92%
CCOC(=O)c1ccc(NP(C)(=O)Oc2ccccc2)cc1 (stereo not drawn) | inactive: 102%
Cc1ccc(NP(C)(=O)Oc2ccccc2)c(C)c1 (stereo not drawn) | inactive: 99%
COc1ccccc1OP(C)(=O)Nc1ccc(C)cc1 (stereo not drawn) | inactive: 101%
COc1ccc(OP(C)(=O)Nc2cccc(F)c2)cc1 (stereo not drawn) | inactive: 96%
COc1ccccc1OP(C)(=O)Nc1cc(Cl)ccc1C (stereo not drawn) | inactive: 97%
Cc1cc(C)cc(OP(C)(N)=O)c1 (stereo not drawn) | inactive: 96%
CCN(CC)CCCOC(=O)C(O)(c1ccccc1)c1ccccc1 | inactive: 104%
Cc1cc(C)cc(OP(C)(=O)Nc2ccc(C)cc2C)c1 (stereo not drawn) | inactive: 101%
CCOC(=O)c1ccc(NP(C)(=O)Oc2cc(C)cc(C)c2)cc1 (stereo not drawn) | inactive: 97%
CP(=O)(Nc1cccc(Br)c1)Oc1ccccc1 (stereo not drawn) | inactive: 103%

SMILES | GTP binding activity (percent of control)
Cc1cc(C)cc(OP(C)(=O)Nc2ccccn2)c1 (stereo not drawn) | inactive: 106%
Cc1ccc(C)c(NP(C)(=O)Oc2ccccc2)c1 (stereo not drawn) | inactive: 98%
CC1=NCCc2c1[nH]c1ccccc21.O=[N+]([O-])c1cc([N+](=O)[O-])c(O)c([N+](=O)[O-])c1 | inactive: 94%
COc1ccccc1OP(C)(=O)Nc1c(C)cccc1C (stereo not drawn) | inactive: 101%
CN1CCCCC1COC(=O)C1(O)c2ccccc2CCc2ccccc21 (stereo not drawn) | inactive: 102%
CP(=O)(Nc1ccc(SC(F)(F)F)cc1)Oc1ccccc1 (stereo not drawn) | inactive: 102%
CCCOc1ccc(NP(C)(=O)Oc2ccc(Cl)cc2)cc1 (stereo not drawn) | inactive: 92%
O=[N+]([O-])c1cc([N+](=O)[O-])c(-n2nnc3ccccc32)c([N+](=O)[O-])c1 | inactive: 92%
Cc1nc2ccc3ccccc3c2s1.O=[N+]([O-])c1cc([N+](=O)[O-])c(O)c([N+](=O)[O-])c1 | inactive: 98%
CCOP(C)(=S)SCC(=O)NC(C)(CC)C(=O)O (stereo not drawn) | inactive: 98%
CP(=O)(Nc1ccc2c(c1)OCCO2)Oc1ccccc1 (stereo not drawn) | inactive: 98%
Cc1ccccc1NP(C)(=O)Nc1ccccc1C | inactive: 98%
COc1ccc(OP(C)(=O)Nc2cccc(Br)c2)cc1 (stereo not drawn) | inactive: 98%
COc1ccc(NP(C)(=O)Oc2ccccc2OC)cc1 (stereo not drawn) | inactive: 103%
CN(C)CCOC(=O)C(O)(c1ccccc1)C1CCCCC1 (stereo not drawn) | inactive: 98%
O=[N+]([O-])c1cc([N+](=O)[O-])c(NCC2CCS(=O)(=O)C2)c([N+](=O)[O-])c1 (stereo not drawn) | inactive: 95%
COc1ccc(OP(C)(=O)Nc2ccc(SC(F)(F)F)cc2)cc1 (stereo not drawn) | inactive: 97%
CCOC(=O)c1ccc(NP(C)(=O)Oc2ccc(F)cc2)cc1 (stereo not drawn) | inactive: 93%
CCN(CC)CCCOC(=O)C(O)(c1ccccc1)C1CCCCC1 (stereo not drawn) | inactive: 98%
CP(=O)(Nc1ccccc1)Oc1ccc(F)cc1 (stereo not drawn) | inactive: 99%
CP(=O)(Nc1ccccc1F)Oc1ccccc1 (stereo not drawn) | inactive: 100%
O=C(OCCN1CCN(CCOCc2ccccc2)CC1)C(O)(c1ccccc1)c1ccccc1 | inactive: 103%
CN(C)CCOC(=O)C(O)(c1ccccc1)C1CCCC1 (stereo not drawn) | inactive: 96%

SMILES | GTP binding activity (percent of control)
COc1ccc(OP(C)(=O)Nc2ccccn2)cc1 (stereo not drawn) | inactive: 94%
O=[N+]([O-])c1cc([N+](=O)[O-])c(Nc2ccccn2)c([N+](=O)[O-])c1 | inactive: 106%
Cc1c(NP(C)(=O)Oc2ccc(C(C)C)cc2)c(=O)n(-c2ccccc2)n1C (stereo not drawn) | inactive: 101%
CCc1ccc(OP(C)(=O)O)cc1 | inactive: 100%
COc1ccccc1OP(C)(=O)Nc1ccc(C)cc1C (stereo not drawn) | inactive: 101%
CP(=O)(Nc1ccccn1)Oc1ccccc1 (stereo not drawn) | inactive: 102%
Cc1cc(C)cc(OP(C)(=O)Nc2cccc(C(F)(F)F)c2)c1 (stereo not drawn) | inactive: 96%
COc1ccc(OP(C)(=O)Nc2ccccc2Br)cc1 (stereo not drawn) | inactive: 101%
COc1ccccc1OP(C)(=O)Nc1ccc(C)c(C)c1 (stereo not drawn) | inactive: 98%
Cc1nc2ccc3ccccc3c2o1.O=[N+]([O-])c1cc([N+](=O)[O-])c(O)c([N+](=O)[O-])c1 | inactive: 104%
CP(=O)(OCCOc1ccccc1)OCCOc1ccccc1 | inactive: 105%
CP(=O)(Nc1ccc(Cl)cc1Cl)Oc1ccccc1 (stereo not drawn) | inactive: 96%
CP(=O)(OC12CC3CC(CC(C3)C1)C2)OC12CC3CC(CC(C3)C1)C2 | inactive: 104%
CCOC(=O)c1ccc(NP(C)(=O)Oc2ccc(Cl)cc2)cc1 (stereo not drawn) | inactive: 96%
COc1ccc(OP(C)(=O)Nc2ccc(Br)cc2)cc1 (stereo not drawn) | inactive: 97%
CCN(CC)CC(O)COC(=O)C(O)(c1ccccc1)C1CCCCC1 (stereo not drawn) | inactive: 100%
CCc1ccc(OP(C)(=O)Nc2cccnc2)cc1 (stereo not drawn) | inactive: 95%
CP(=O)(Oc1ccccc1)N1CCOC1=O (stereo not drawn) | inactive: 98%
CP(=O)(Nc1ccc(Cl)cc1)Oc1ccc(F)cc1 (stereo not drawn) | inactive: 96%
CC(C)(C)c1ccc(OP(C)(=O)O)cc1 | inactive: 110%
COc1ccccc1OP(C)(=O)Nc1ccccc1Br (stereo not drawn) | inactive: 104%
CN(C)C(=O)c1c([N+](=O)[O-])cc([N+](=O)[O-])cc1[N+](=O)[O-] | inactive: 107%
